According to publication PMC3496871 (Molecular bioSystems, 2012):

System: kanamycin A
Assay: purified protein, by the assay type
Conditions: 500 μM AcCoA, apparent, pH 7.5, 25.0 °C

## Eis_Ava (Trichormus variabilis ATCC 29413)
other: Eis_Ava 0.25 μM
  Km: 1002 ± 43 µM
  kcat: 0.205 s⁻¹
  kcat/Km: 205 M⁻¹ s⁻¹

## Eis_Msm (Mycolicibacterium smegmatis MC2 155)
other: Eis_Msm 0.25 μM
  Km: 665 ± 42 µM
  kcat: 0.36 s⁻¹
  kcat/Km: 541 M⁻¹ s⁻¹
